# Permeability data for macrocyclic peptides

PAMPA measures passive passage through an artificial lipid membrane. Values are log10 P with P in cm/s, so -5 is more permeable than -7.

compound	PAMPA (log10 cm/s)
CC(=O)N1CCC[C@@H]1C(=O)N(C)[C@H](CC(C)C)C(=O)N[C@@H]1C(=O)N[C@@H](CC(C)C)C(=O)N[C@@H](CC(C)C)C(=O)N(C)[C@@H](CC(C)C)C(=O)N(C)[C@H](C)C(=O)N[C@@H](CC(C)C)C(=O)N2CCC[C@@H]2C(=O)O[C@@H]1C	-6.41
CC(=O)N1CCC[C@@H]1C(=O)N(C)[C@@H](CC(C)C)C(=O)N[C@@H]1C(=O)N[C@@H](CC(C)C)C(=O)N[C@@H](CC(C)C)C(=O)N[C@@H](CC(C)C)C(=O)N[C@@H](C)C(=O)N[C@H](CC(C)C)C(=O)N2CCC[C@H]2C(=O)O[C@@H]1C	-6.86
CC(=O)N1CCC[C@H]1C(=O)N(C)[C@H](CC(C)C)C(=O)N[C@@H]1C(=O)N[C@@H](CC(C)C)C(=O)N(C)[C@@H](CC(C)C)C(=O)N[C@@H](CC(C)C)C(=O)N(C)[C@@H](C)C(=O)N[C@@H](CC(C)C)C(=O)N2CCC[C@@H]2C(=O)O[C@@H]1C	-5.53
CC(=O)N1CCC[C@@H]1C(=O)N(C)[C@@H](CC(C)C)C(=O)N[C@@H]1C(=O)N[C@@H](CC(C)C)C(=O)N(C)[C@H](CC(C)C)C(=O)N(C)[C@H](CC(C)C)C(=O)N(C)[C@H](C)C(=O)N[C@@H](CC(C)C)C(=O)N2CCC[C@H]2C(=O)O[C@@H]1C	-5.90
CC(=O)N1CCC[C@@H]1C(=O)N(C)[C@@H](CC(C)C)C(=O)N[C@@H]1C(=O)N(C)[C@H](CC(C)C)C(=O)N(C)[C@H](CC(C)C)C(=O)N(C)[C@H](CC(C)C)C(=O)N(C)[C@@H](C)C(=O)N[C@@H](CC(C)C)C(=O)N2CCC[C@H]2C(=O)O[C@@H]1C	-5.46
CC(=O)N1CCC[C@@H]1C(=O)N(C)[C@H](CC(C)C)C(=O)N[C@@H]1C(=O)N(C)[C@H](CC(C)C)C(=O)N[C@H](CC(C)C)C(=O)N[C@H](CC(C)C)C(=O)N[C@H](C)C(=O)N[C@H](CC(C)C)C(=O)N2CCC[C@H]2C(=O)O[C@@H]1C	-6.74
CC(=O)N1CCC[C@@H]1C(=O)N(C)[C@@H](CC(C)C)C(=O)N[C@@H]1C(=O)N[C@H](CC(C)C)C(=O)N(C)[C@@H](CC(C)C)C(=O)N(C)[C@@H](CC(C)C)C(=O)N[C@@H](C)C(=O)N[C@@H](CC(C)C)C(=O)N2CCC[C@@H]2C(=O)O[C@@H]1C	-5.26
CC(=O)N1CCC[C@H]1C(=O)N[C@@H]1C(=O)N[C@H](CC(C)C)C(=O)N(C)[C@H](CC(C)C)C(=O)N(C)[C@@H](CC(C)C)C(=O)N(C)[C@H](CC(C)C)C(=O)N[C@H](C)C(=O)N[C@@H](CC(C)C)C(=O)N2CCC[C@@H]2C(=O)O[C@@H]1C	-5.21
CC(=O)N1CCC[C@H]1C(=O)N(C)[C@@H](CC(C)C)C(=O)N[C@@H]1C(=O)N(C)[C@@H](CC(C)C)C(=O)N[C@H](CC(C)C)C(=O)N[C@@H](CC(C)C)C(=O)N[C@@H](C)C(=O)N[C@@H](CC(C)C)C(=O)N2CCC[C@H]2C(=O)O[C@@H]1C	-6.69
CC(=O)N[C@@H]1C(=O)N2CCC[C@H]2C(=O)N(C)[C@H](CC(C)C)C(=O)N[C@H](CC(C)C)C(=O)N[C@@H](CC(C)C)C(=O)N[C@@H](CC(C)C)C(=O)N(C)[C@@H](C)C(=O)N[C@@H](CC(C)C)C(=O)N2CCC[C@@H]2C(=O)O[C@@H]1C	-6.76
CC(=O)N1CCC[C@H]1C(=O)N(C)[C@H](CC(C)C)C(=O)N[C@@H]1C(=O)N[C@H](CC(C)C)C(=O)N(C)[C@@H](CC(C)C)C(=O)N[C@@H](CC(C)C)C(=O)N(C)[C@@H](C)C(=O)N[C@H](CC(C)C)C(=O)N2CCC[C@@H]2C(=O)O[C@@H]1C	-5.08
CC(=O)N1CCC[C@@H]1C(=O)N(C)[C@H](CC(C)C)C(=O)N[C@@H]1C(=O)N[C@H](CC(C)C)C(=O)N[C@H](CC(C)C)C(=O)N[C@H](CC(C)C)C(=O)N(C)[C@H](C)C(=O)N[C@@H](CC(C)C)C(=O)N2CCC[C@@H]2C(=O)O[C@@H]1C	-6.12
CC(=O)N1CCC[C@@H]1C(=O)N(C)[C@H](CC(C)C)C(=O)N[C@@H]1C(=O)N[C@H](CC(C)C)C(=O)N(C)[C@@H](CC(C)C)C(=O)N(C)[C@H](CC(C)C)C(=O)N(C)[C@@H](C)C(=O)N[C@H](CC(C)C)C(=O)N2CCC[C@H]2C(=O)O[C@@H]1C	-5.30
CC(=O)N1CCC[C@H]1C(=O)N(C)[C@@H](CC(C)C)C(=O)N[C@@H]1C(=O)N(C)[C@@H](CC(C)C)C(=O)N[C@H](CC(C)C)C(=O)N(C)[C@@H](CC(C)C)C(=O)N(C)[C@@H](C)C(=O)N[C@H](CC(C)C)C(=O)N2CCC[C@H]2C(=O)O[C@@H]1C	-5.69
CC(=O)N1CCC[C@@H]1C(=O)N(C)[C@@H](CC(C)C)C(=O)N[C@@H]1C(=O)N[C@@H](CC(C)C)C(=O)N(C)[C@H](CC(C)C)C(=O)N(C)[C@@H](CC(C)C)C(=O)N(C)[C@H](C)C(=O)N[C@@H](CC(C)C)C(=O)N2CCC[C@H]2C(=O)O[C@@H]1C	-5.45

A selection of 2 entries from above:

compound	PAMPA (log10 cm/s)
CC(=O)N1CCC[C@H]1C(=O)N[C@@H]1C(=O)N[C@H](CC(C)C)C(=O)N(C)[C@H](CC(C)C)C(=O)N(C)[C@@H](CC(C)C)C(=O)N(C)[C@H](CC(C)C)C(=O)N[C@H](C)C(=O)N[C@@H](CC(C)C)C(=O)N2CCC[C@@H]2C(=O)O[C@@H]1C	-5.21
CC(=O)N1CCC[C@H]1C(=O)N(C)[C@@H](CC(C)C)C(=O)N[C@@H]1C(=O)N(C)[C@@H](CC(C)C)C(=O)N[C@H](CC(C)C)C(=O)N(C)[C@@H](CC(C)C)C(=O)N(C)[C@@H](C)C(=O)N[C@H](CC(C)C)C(=O)N2CCC[C@H]2C(=O)O[C@@H]1C	-5.69

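Conditions beyond the assay type are not listed; see the original paper. The list need not hold all peptides of the study. Entries at the database's floor value (log10 P of -10) are not listed.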

Collected by the curators of CycPeptMPDB (Li et al. 2023) from Kelly et al. 2021, doi:10.1021/jacs.0c06115.